Chains of the proteins cited; added tags and fusions are not shown.
UniProt P08684, whole entry: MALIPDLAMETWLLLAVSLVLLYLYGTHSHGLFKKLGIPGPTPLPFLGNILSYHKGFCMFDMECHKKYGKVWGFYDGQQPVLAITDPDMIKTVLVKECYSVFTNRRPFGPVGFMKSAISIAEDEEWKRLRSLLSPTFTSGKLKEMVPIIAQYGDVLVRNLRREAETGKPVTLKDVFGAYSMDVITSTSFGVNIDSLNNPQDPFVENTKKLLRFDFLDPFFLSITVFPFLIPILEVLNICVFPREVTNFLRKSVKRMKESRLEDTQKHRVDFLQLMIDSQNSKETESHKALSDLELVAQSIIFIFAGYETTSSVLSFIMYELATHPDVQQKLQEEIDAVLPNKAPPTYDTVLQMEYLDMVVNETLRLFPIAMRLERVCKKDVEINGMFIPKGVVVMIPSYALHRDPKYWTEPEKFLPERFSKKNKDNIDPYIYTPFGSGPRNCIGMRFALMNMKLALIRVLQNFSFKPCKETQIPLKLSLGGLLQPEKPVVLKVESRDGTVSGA

In patent publication US20060095982A1 (priority 2002, published 2006):

Target: mammalian P450 3A4 (Homo sapiens, UniProt P08684)
Assay: Degradation of nitramine explosives by mammalian P450 3A4
Settings: preliminary results

In the case of `O=[N+]([O-])N1CN([N+](=O)[O-])CN([N+](=O)[O-])C1`, the “degradation by mammalian P450 3A4” value is reported as “ability to degrade”.

Some compounds may have been tested in ways that are not shown here.
